The values below are quoted from earlier work in patent publication US20050004105A1, “Treatment for a attention-deficit hyperactivity disorder” (priority 2003, published 2005).

pKi: −log10 of the molar value. Where a name gives a salt, the structure may show the parent alone.

This data set addresses α2 receptor. The note with it: rat cortical membranes, [3H]RX 821002; exemplary protocol; read-out: Ki of reference compound, α2 binding assay; cited from earlier work.

Consider `Cc1ccc(N(CC2=NCCN2)c2cccc(O)c2)cc1` [phentolamine mesylate], for which the pKi – broadly, −log10 of the Ki, conventionally taken in molar units – was about 8.49.
